Where “and” joins values, the source holds several entries; their conditions need not be identical. Equal entries are not always repeated. Only a part is listed here, and it is no random draw. Some results for these compounds are left out of this collection, so the calls shown say nothing about other tests. Inconclusive results are not listed. Calls of active or inactive are those of the source. The call rests on the fitted dose curve; in most records, active means well fitted inhibition curve with a large enough effect; inconclusive means small, poorly fitted or top-dose-only effect; inactive means flat fitted curve, though single readings scatter.
On the % scale 0 is the no-effect control and ±100 the full control effect.

This test in a line: qHTS for Inhibitors of human tyrosyl-DNA phosphodiesterase 1 (TDP1): qHTS in cells in absence of CPT. Further: nearly all actives have a fitted effect of over 55% in size. The following applies: DT40 Tdp1-/- hTDP1 cells, no CPT, ATP luminescence, 48 h; at 46.2 µM (top of the series). On the technique in general: qHTS replaces the single test concentration by a dilution series.
As for `COc1ccc(C(=O)NCC2(N(C)C)CCCCC2)cc1`, the activity change, negative = growth inhibition was inactive: 18.9%.

Turning to `O=C(NCC1(N2CCCCC2)CCCCC1)c1cccc(Br)c1`, the activity change, negative = growth inhibition was inactive: -7.08%.

As for `CCN1CCCC(OC(=O)C2(O)c3ccccc3C=Cc3ccccc32)C1` (configuration not stated), the activity change, negative = growth inhibition is inactive: -20.4%.

Take `O=C(NCC1(N2CCCCC2)CCCCC1)c1cc(F)c(F)cc1Cl`: the activity change, negative = growth inhibition was inactive: -26.6%.

For `C=CCN1CCN(CCOC(=O)C(O)(c2ccccc2)c2ccccc2)CC1`, the activity change, negative = growth inhibition is inactive: -5.76%.

On to `CN1CCCC(OC(=O)C(O)(c2ccccc2)c2ccccc2)C1` (configuration not stated), for which the activity change, negative = growth inhibition was inactive: -11%.

Regarding `CN(C)c1ccc(C(=O)NCC2(N(C)C)CCCCC2)cc1`, the activity change, negative = growth inhibition is inactive: -1.89%.

Take `Cc1ccccc1C(=O)NCC1(N2CCCCC2)CCCCC1`: the activity change, negative = growth inhibition is inactive: 7.86%.

Consider `Cc1ccc(C(=O)NCC2(N3CCCCC3)CCCCC2)cc1`, for which the activity change, negative = growth inhibition is inactive: -18.7%.

For the molecule `COc1cc(SC)ccc1C(=O)NCC1(N(C)C)CCCCC1`, the activity change, negative = growth inhibition is inactive: 12.2%.

Consider `CCN(CC)CC(C)C(C)OC(=O)C(O)(c1ccccc1)c1ccccc1` (configuration not stated), for which the activity change, negative = growth inhibition was inactive: -14.2%.

Take `CN(C)C1(CNC(=O)c2cccc(Cl)c2)CCCCC1`: the activity change, negative = growth inhibition was inactive: -2.18%.

Regarding `CC(C)N1C(=O)CC2(CCN(CCOC(=O)C(O)(c3ccccc3)c3ccccc3)CC2)C1=O`, the activity change, negative = growth inhibition is inactive: -11.6%.

On to `CN1[C@@H]2CC[C@H]1CC(OC(=O)C(O)(c1ccccc1)c1ccccc1)C2` (some centres not stated), for which the activity change, negative = growth inhibition was inactive: -17.8%.

In the case of `O=C(NCC1(N2CCCCC2)CCCCC1)c1cc([N+](=O)[O-])ccc1Cl`, the activity change, negative = growth inhibition was inactive: -11.2%.

`CC(C)Oc1ccc(C(=O)NCC2(N(C)C)CCCCC2)cc1`: the activity change, negative = growth inhibition is inactive: 6.77% and inactive: -19.7%.

Turning to `CN(C)c1cccc(C(=O)NCC2(N(C)C)CCCCC2)c1`, the activity change, negative = growth inhibition is inactive: -19.3%.

On to `C=C(C)C#CC(O)(C(=O)OC1CCN(C)CC1)c1ccccc1` (configuration not stated), for which the activity change, negative = growth inhibition was inactive: -29.4%.

Consider `COc1ccc(Br)c(C(=O)NCC2(N3CCCCC3)CCCCC2)c1`, for which the activity change, negative = growth inhibition is inactive: -22.5%.

On to `COc1cc(C(=O)NCC2(N(C)C)CCCCC2)cc(OC)c1OC`, for which the activity change, negative = growth inhibition was inactive: -2.57%.

Consider `Cc1cccc(C(=O)NCC2(N(C)C)CCCCC2)c1`, for which the activity change, negative = growth inhibition was inactive: -1.96%.

Turning to `O=C(OC1CN2CCC1CC2)C(CO)(c1ccccc1)c1ccccc1` (configuration not stated), the activity change, negative = growth inhibition is inactive: -22.2%.

Take `O=C(NCC1(N2CCCCC2)CCCCC1)c1cccc(Cl)c1`: the activity change, negative = growth inhibition was inactive: -16.1%.

On to `COc1ccc(Cl)cc1C(=O)NCC1(N(C)C)CCCCC1`, for which the activity change, negative = growth inhibition is inactive: -1.77%.

Take `COc1cccc(C(=O)NCC2(N3CCCCC3)CCCCC2)c1`: the activity change, negative = growth inhibition was inactive: -16.1%.

Regarding `COc1ccc(C(=O)NCC2(N(C)C)CCCCC2)cc1Cl`, the activity change, negative = growth inhibition is inactive: -15.5%.

Take `COc1cc(C(=O)NCC2(N(C)C)CCCCC2)c([N+](=O)[O-])cc1OC`: the activity change, negative = growth inhibition was inactive: -17.2%.

The values are drawn from PubChem BioAssay AID686978 (National Center for Advancing Translational Sciences (NCATS), 2013).
